Laboratory results taken from publication PMC12136037, “Type II kinase inhibitors that target Parkinson’s disease–associated LRRK2” (Science Advances, 2025).

The chains behind the UniProt entries cited, without tags or fusion partners. Residues count along the entry.
UniProt Q8TDX7, whole entry: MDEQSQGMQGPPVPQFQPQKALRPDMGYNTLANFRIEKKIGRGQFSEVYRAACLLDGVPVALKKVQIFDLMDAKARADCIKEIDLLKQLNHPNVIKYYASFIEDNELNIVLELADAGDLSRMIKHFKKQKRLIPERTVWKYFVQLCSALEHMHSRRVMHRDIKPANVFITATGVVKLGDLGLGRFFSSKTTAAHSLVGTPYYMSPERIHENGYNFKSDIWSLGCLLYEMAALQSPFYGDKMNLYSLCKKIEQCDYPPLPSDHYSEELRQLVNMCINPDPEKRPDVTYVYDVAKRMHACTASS
UniProt P54762, 18-984 limits assumed: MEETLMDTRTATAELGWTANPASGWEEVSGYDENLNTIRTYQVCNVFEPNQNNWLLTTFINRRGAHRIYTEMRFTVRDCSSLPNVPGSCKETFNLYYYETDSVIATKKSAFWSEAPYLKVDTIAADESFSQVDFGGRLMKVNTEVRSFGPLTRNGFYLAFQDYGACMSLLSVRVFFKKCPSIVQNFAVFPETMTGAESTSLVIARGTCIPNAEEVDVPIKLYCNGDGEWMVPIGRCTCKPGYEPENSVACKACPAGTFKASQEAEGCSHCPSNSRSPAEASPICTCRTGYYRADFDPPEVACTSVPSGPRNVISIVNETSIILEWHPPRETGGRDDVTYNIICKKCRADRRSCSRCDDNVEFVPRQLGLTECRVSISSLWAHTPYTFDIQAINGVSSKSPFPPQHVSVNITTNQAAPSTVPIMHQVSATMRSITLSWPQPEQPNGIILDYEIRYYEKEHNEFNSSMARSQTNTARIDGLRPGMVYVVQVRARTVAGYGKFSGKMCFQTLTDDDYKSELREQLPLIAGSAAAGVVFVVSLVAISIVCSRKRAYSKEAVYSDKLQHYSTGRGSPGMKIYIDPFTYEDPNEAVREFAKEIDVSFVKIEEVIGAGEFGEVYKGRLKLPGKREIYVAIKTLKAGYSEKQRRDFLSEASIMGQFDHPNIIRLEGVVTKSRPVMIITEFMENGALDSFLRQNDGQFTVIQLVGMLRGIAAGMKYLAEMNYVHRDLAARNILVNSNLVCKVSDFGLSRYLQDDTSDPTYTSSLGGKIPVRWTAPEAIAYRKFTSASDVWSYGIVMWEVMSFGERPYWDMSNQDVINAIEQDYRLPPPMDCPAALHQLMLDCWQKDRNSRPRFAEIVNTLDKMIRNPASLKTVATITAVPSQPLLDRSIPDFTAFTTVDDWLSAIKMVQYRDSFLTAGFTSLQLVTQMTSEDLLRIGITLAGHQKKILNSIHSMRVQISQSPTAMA
UniProt Q16539, whole entry: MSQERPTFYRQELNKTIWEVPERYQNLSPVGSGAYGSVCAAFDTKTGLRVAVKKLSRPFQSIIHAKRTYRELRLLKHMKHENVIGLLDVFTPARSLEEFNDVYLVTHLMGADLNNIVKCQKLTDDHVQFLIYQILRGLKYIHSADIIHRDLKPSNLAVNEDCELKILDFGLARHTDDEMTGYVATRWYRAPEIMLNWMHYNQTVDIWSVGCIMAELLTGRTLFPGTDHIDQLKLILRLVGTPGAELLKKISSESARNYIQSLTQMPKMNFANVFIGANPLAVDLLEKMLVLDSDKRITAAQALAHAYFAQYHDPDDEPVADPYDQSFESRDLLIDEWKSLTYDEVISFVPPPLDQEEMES
UniProt Q13043, whole entry: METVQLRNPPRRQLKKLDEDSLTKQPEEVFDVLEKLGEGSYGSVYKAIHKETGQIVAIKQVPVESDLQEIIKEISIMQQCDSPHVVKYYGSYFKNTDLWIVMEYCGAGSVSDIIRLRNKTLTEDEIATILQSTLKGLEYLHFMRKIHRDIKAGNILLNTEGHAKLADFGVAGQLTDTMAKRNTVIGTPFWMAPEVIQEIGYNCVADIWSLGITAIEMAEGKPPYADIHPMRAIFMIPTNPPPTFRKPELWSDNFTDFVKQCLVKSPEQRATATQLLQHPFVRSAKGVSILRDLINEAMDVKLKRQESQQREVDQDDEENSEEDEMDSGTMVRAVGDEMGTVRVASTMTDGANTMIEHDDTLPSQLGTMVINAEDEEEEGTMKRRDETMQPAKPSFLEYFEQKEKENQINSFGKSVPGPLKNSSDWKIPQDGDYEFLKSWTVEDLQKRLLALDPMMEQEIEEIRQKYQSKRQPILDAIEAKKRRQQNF
UniProt O15075, whole entry: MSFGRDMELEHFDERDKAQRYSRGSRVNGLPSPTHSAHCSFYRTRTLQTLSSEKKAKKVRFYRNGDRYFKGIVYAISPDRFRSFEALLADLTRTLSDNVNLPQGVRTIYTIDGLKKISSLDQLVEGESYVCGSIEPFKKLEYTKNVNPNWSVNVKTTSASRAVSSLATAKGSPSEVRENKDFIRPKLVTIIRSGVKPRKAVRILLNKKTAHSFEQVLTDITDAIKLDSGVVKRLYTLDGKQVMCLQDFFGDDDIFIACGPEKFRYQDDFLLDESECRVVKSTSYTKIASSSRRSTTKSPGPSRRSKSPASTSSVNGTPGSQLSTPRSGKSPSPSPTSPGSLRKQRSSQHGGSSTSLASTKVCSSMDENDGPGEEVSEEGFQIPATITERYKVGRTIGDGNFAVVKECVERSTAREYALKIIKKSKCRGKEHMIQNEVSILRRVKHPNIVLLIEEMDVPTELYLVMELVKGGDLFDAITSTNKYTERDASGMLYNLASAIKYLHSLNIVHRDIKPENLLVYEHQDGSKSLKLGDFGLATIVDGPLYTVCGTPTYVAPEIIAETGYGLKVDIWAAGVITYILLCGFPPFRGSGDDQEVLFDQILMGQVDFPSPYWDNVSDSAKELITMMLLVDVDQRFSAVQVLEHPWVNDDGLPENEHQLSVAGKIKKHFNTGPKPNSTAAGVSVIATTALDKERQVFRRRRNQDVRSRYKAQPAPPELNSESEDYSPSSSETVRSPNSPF
UniProt Q9UKI8, whole entry: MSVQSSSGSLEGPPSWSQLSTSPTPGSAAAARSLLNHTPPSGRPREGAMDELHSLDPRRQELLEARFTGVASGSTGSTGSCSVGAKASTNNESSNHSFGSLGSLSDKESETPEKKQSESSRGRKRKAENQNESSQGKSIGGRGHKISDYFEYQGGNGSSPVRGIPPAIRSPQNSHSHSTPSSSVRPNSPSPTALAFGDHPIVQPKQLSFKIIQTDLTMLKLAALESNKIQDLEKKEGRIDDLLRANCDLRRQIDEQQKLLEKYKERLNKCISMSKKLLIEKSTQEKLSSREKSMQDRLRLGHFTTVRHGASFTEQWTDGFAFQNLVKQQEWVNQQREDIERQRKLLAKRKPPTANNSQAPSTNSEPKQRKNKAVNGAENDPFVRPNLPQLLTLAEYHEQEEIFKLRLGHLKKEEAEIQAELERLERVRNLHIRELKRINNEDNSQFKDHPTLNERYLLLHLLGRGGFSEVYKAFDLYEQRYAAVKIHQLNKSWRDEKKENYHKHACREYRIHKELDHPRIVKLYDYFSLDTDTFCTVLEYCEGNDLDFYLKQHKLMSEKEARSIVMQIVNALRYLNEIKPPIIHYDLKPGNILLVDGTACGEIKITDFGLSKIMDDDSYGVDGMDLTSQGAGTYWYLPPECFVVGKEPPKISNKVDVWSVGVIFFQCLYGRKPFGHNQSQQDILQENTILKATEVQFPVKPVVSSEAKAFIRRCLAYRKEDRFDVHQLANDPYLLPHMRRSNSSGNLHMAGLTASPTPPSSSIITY
UniProt Q00536, whole entry: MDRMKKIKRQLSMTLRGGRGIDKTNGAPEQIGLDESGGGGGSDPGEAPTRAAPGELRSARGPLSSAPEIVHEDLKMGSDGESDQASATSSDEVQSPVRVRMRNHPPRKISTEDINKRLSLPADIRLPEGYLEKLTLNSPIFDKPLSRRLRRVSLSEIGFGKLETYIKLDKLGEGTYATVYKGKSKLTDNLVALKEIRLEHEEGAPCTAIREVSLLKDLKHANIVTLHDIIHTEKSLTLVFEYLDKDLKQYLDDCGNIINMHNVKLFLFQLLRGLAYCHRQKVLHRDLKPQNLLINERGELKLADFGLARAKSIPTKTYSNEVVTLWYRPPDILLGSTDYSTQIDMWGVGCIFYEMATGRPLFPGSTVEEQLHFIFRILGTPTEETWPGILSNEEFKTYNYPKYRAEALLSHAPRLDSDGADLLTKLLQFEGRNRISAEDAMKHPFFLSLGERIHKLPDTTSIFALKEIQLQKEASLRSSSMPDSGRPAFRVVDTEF
UniProt O75582, whole entry: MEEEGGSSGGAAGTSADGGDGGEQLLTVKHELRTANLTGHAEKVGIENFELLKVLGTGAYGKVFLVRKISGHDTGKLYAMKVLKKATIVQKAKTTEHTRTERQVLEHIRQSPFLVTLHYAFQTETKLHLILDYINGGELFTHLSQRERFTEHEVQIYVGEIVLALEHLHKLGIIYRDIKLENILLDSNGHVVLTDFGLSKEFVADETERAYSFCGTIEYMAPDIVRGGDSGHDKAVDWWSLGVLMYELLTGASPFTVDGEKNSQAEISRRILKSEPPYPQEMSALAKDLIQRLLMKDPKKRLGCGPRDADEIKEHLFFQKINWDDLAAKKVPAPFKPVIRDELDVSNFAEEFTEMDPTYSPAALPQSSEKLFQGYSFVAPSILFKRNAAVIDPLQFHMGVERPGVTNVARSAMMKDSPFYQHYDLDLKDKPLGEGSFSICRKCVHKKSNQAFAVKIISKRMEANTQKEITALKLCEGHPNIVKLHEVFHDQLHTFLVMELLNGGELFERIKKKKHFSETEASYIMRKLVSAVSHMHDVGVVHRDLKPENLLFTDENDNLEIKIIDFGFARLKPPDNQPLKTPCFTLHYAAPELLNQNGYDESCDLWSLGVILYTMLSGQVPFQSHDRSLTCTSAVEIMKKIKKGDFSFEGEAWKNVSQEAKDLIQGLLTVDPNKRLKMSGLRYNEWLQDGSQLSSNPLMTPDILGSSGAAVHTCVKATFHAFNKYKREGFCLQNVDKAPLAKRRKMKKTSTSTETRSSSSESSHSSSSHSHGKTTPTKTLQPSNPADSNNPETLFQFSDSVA
UniProt O43293, whole entry: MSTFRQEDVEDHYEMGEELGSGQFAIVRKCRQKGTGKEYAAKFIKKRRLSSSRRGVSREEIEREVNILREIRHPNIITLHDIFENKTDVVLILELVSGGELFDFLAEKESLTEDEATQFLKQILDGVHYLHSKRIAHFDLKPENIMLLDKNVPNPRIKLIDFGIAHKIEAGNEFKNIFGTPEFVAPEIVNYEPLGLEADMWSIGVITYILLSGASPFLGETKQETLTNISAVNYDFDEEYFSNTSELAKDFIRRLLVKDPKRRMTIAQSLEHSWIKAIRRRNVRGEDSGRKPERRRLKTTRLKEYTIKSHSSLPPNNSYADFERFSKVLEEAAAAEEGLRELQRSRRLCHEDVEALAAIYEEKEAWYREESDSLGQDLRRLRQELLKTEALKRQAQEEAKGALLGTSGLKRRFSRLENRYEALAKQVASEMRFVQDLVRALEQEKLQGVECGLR
UniProt O14936, whole entry: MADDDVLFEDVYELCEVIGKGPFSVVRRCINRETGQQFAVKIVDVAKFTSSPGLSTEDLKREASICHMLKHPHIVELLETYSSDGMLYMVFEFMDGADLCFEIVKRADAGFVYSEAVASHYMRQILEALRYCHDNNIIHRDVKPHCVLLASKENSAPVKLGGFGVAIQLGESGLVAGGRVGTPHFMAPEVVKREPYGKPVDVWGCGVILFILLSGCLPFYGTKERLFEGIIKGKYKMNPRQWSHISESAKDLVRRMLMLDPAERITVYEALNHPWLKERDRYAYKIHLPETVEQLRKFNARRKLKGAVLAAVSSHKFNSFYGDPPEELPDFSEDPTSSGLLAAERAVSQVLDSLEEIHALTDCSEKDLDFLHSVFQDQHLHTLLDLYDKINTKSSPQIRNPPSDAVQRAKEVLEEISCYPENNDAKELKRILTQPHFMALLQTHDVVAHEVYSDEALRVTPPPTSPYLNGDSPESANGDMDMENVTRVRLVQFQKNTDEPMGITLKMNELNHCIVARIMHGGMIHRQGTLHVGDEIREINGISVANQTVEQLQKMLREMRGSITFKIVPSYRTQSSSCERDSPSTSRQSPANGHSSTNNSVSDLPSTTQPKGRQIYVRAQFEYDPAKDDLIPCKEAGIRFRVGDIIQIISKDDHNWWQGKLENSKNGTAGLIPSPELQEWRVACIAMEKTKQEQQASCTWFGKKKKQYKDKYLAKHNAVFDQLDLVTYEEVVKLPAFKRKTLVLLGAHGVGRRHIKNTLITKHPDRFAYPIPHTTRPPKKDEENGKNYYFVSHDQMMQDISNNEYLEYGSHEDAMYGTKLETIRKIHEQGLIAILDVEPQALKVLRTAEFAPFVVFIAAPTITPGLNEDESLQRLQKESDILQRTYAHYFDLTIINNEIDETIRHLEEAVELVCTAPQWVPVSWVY

What was measured:
Assay in all cases: DSF 100 kinase selectivity screen;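 for dTm: compound tested at 20 µM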
Assay type in all cases: binding
[1] = molecular target: ~100 representative kinases (Homo sapiens, UniProt Q96PY6); conditions: protein NEK1; average of three replicates
[2] = molecular target: ~100 representative kinases (Homo sapiens, UniProt Q96NX5); conditions: Protein CAMK1G; average of three replicates
[3] = molecular target: ~100 representative kinases (Homo sapiens, UniProt P11362); conditions: protein FGFR1; average of three replicates
[4] = molecular target: ~100 representative kinases (Homo sapiens, UniProt Q13153); conditions: protein PAK1; average of three replicates
[5] = molecular target: ~100 representative kinases (Homo sapiens, UniProt Q13554); conditions: Protein CAMK2B; average of three replicates
[6] = molecular target: ~100 representative kinases (Homo sapiens, UniProt P55201); conditions: Protein BRPF1; average of three replicates
[7] = molecular target: ~100 representative kinases (Homo sapiens, UniProt Q13557); conditions: Protein CAMK2D; average of three replicates
[8] = molecular target: ~100 representative kinases (Homo sapiens, UniProt P07332); conditions: protein FESA; average of three replicates
[9] = molecular target: ~100 representative kinases (Homo sapiens, UniProt P33981); conditions: Protein TTK; DSF; average of three replicates
[10] = molecular target: ~100 representative kinases (Homo sapiens, UniProt Q8TDX7); conditions: protein NEK7; average of three replicates
[11] = molecular target: ~100 representative kinases (Homo sapiens, UniProt P54762); conditions: Protein EPHB1; average of three replicates
[12] = molecular target: ~100 representative kinases (Homo sapiens, UniProt Q16539); conditions: protein MAPK14; average of three replicates
[13] = molecular target: ~100 representative kinases (Homo sapiens, UniProt P24941); conditions: Protein CDK2; average of three replicates
[14] = molecular target: ~100 representative kinases (Homo sapiens, UniProt Q13043); conditions: Protein STK4; DSF; average of three replicates
[15] = molecular target: ~100 representative kinases (Homo sapiens, UniProt O15075); conditions: Protein DCAMKL1; average of three replicates
[16] = tested on: ~100 representative kinases
[17] = molecular target: ~100 representative kinases (Homo sapiens, UniProt Q9Y6E0); conditions: protein MST3; average of three replicates
[18] = molecular target: ~100 representative kinases (Homo sapiens, UniProt Q9UKI8); conditions: Protein TLK1; DSF; average of three replicates
[19] = molecular target: ~100 representative kinases (Homo sapiens, UniProt Q12866); conditions: protein MERTK; average of three replicates
[20] = molecular target: ~100 representative kinases (Homo sapiens, UniProt P29317); conditions: Protein EPHA2; average of three replicates
[21] = molecular target: ~100 representative kinases (Homo sapiens, UniProt Q00536); conditions: protein PCTK1; average of three replicates
[22] = molecular target: ~100 representative kinases (Homo sapiens, UniProt P49761); conditions: Protein CLK3; average of three replicates
[23] = molecular target: ~100 representative kinases (Homo sapiens, UniProt P53355); conditions: Protein DAPK1; average of three replicates
[24] = molecular target: ~100 representative kinases (Homo sapiens, UniProt O75582); conditions: Protein RPS6KA5; DSF; average of three replicates
[25] = molecular target: ~100 representative kinases (Homo sapiens, UniProt P21675); conditions: Protein TAF1; DSF; average of three replicates
[26] = molecular target: ~100 representative kinases (Homo sapiens, UniProt O43293); conditions: Protein DAPK3; average of three replicates
[27] = molecular target: ~100 representative kinases (Homo sapiens, UniProt P68400); conditions: Protein CK2A1; average of three replicates
[28] = molecular target: ~100 representative kinases (Homo sapiens, UniProt Q9H2G2); conditions: Protein SLK; DSF; average of three replicates
[29] = molecular target: ~100 representative kinases (Homo sapiens, UniProt P12931); conditions: Protein SRC; DSF; average of three replicates
[30] = molecular target: ~100 representative kinases (Homo sapiens, UniProt O14936); conditions: Protein CASK; average of three replicates
[31] = molecular target: ~100 representative kinases (Homo sapiens, UniProt Q99683); conditions: protein MAP3K5; average of three replicates

## Cc1ccc(C(=O)Nc2ccc(CN3CCN(C)CC3)c(C(F)(F)F)c2)cc1C#Cc1ccc2cn[nH]c2c1
[1]
  dTm: 0.73 K
[2]
  dTm: 0.22 K
[3]
  dTm: 5.88 K
[4]
  dTm: -0.45 K
[5]
  dTm: -2.20 K
[6]
  dTm: -7.02 K
[7]
  dTm: 0.22 K
[8]
  dTm: -4.59 K
[9]
  dTm: -2.93 K
[10]
  dTm: -1.99 K
[11]
  dTm: 5.82 K
[12]
  dTm: 7.02 K
[13]
  dTm: -0.16 K
[14]
  dTm: 4.38 K
[15]
  dTm: 2.09 K
[16]; DSF selectivity panel, thermal shift >5 K
  S (5 K) / share of screened kinases stabilized: 27%
[16]; Protein BRD, average of three replicates
  dTm: -1.79 K
[16]; number of kinases with thermal shift >5 K divided by total number of kinases screened
  S(5K): 0.27
[16]; number of proteins of the DSF panel with dTm >5K
  # >5K: 27
[16]; selectivity score: # >5K divided by # of proteins tested in the DSF panel
  S(5K): 0.267
[17]
  dTm: 10.92 K
[18]
  dTm: -4.46 K
[19]
  dTm: 0.53 K
[20]
  dTm: 9.80 K
[21]
  dTm: 4.19 K
[22]
  dTm: 1.91 K
[23]
  dTm: -1.06 K
[24]
  dTm: 1.23 K
[25]
  dTm: -12.38 K
[26]
  dTm: -1.05 K
[27]
  dTm: -0.07 K
[28]
  dTm: 8.39 K
[29]
  dTm: -0.06 K
[30]
  dTm: -0.51 K
[31]
  dTm: 1.15 K
